pEC50: −log10 of the molar value.
What was measured:
[1] = system: type 2 diabetic mouse (db/db) model; test: Reduction in blood glucose and effect on body weight and food intake, single dose, db/db mice (Tables 4, 5); type: in vivo
Procedure: The effect of Compounds of present invention on blood glucose was studied on mice. This study was performed in a type 2 diabetic mouse (db/db) model. […] Baseline blood glucose was measured from all the animals. All animals were administered with its respective test item subcutaneously. […] Delta blood glucose (mM) was calculated. Similarly body weight changes and cumulative food consumption was measured at 96 hr post treatment.

GIPR = molecular target: T1, GIPR (Homo sapiens, UniProt P48546); test: cAMP assay (cAMP Hunter eXpress GPCR Assay) on GIPR-expressing cells; type: cell-based; settings: read-out: half-maximal effective concentration, cellular cAMP
T1 construct: host or cells: GIPR-expressing cells of the cAMP Hunter eXpress GPCR Assay kit
T1 sequence (P48546 22-466): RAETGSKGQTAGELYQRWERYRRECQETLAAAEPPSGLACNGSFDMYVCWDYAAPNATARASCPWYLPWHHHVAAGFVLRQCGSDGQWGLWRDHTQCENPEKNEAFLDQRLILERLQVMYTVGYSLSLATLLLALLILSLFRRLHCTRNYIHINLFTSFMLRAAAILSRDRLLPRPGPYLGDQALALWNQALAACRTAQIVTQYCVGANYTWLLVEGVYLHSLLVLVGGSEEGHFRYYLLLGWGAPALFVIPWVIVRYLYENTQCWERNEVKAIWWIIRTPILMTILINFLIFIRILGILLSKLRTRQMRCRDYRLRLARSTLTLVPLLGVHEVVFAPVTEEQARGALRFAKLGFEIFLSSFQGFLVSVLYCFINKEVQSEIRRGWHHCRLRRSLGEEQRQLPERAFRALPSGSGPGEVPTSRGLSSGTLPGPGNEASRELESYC
Procedure: In-vitro potency determination was performed using cAMP assay. G protein coupled receptor (GPCR) activation following ligand binding initiates a series of second messenger cascades that results in a cellular response. Signaling by the GLP-1R and GIP-R involves activation of adenylate cyclase and cAMP production. Cellular cAMP production was determined using the cAMP Hunter™ eXpress GPCR Assay (Eurofins DiscoveRx).

[2] = system: type 2 diabetic mouse (db/db) model; test: Effect of Compound 2 and 7 on blood glucose, body weight and food consumption in mice, up to 72 hr (Tables 6, 7); type: in vivo; settings: n = 8
Procedure: Similarly body weight changes and cumulative food consumption was measured at 72 hr post treatment.

Row | Compound | Delta Blood Glucose (mM), Mean ([1]; 4 hr post treatment, @ 10 nM s.c., n = 6 study) | Delta Blood Glucose (mM), Mean ([1]; 4 hr post treatment, @ 59 nM s.c., separate study n = 5) | Delta Blood Glucose (mM), Mean ([1]; 12 hr post treatment, @ 10 nM s.c., n = 6 study) | Delta Blood Glucose (mM), Mean ([1]; 12 hr post treatment, @ 59 nM s.c., separate study n = 5) | Delta Blood Glucose (mM), Mean ([1]; 24 hr post treatment, @ 10 nM s.c., n = 6 study) | Delta Blood Glucose (mM), Mean ([1]; 24 hr post treatment, @ 59 nM s.c., separate study n = 5) | Delta Blood Glucose (mM), Mean ([1]; 48 hr post treatment, @ 10 nM s.c., n = 6 study) | Delta Blood Glucose (mM), Mean ([1]; 48 hr post treatment, @ 59 nM s.c., separate study n = 5) | Delta Blood Glucose (mM), Mean ([1]; 72 hr post treatment, @ 10 nM s.c., n = 6 study) | Delta Blood Glucose (mM), Mean ([1]; 72 hr post treatment, @ 59 nM s.c., separate study n = 5) | Delta Blood Glucose (mM), Mean ([1]; 96 hr post treatment, @ 10 nM s.c., n = 6 study) | Delta Blood Glucose (mM), Mean ([1]; 96 hr post treatment, @ 59 nM s.c., separate study n = 5) | pEC50 (GIPR) | Delta Blood Glucose (mM), Mean ([2]; 4 hr post treatment, 90 nM/kg) | Delta Blood Glucose (mM), Mean ([2]; 8 hr post treatment, 90 nM/kg) | Delta Blood Glucose (mM), Mean ([2]; 12 hr post treatment, 90 nM/kg) | Delta Blood Glucose (mM), Mean ([2]; 24 hr post treatment, 90 nM/kg) | Delta Blood Glucose (mM), Mean ([2]; 48 hr post treatment, 90 nM/kg) | Delta Blood Glucose (mM), Mean ([2]; 72 hr post treatment, 90 nM/kg) | Delta Blood Glucose (mM), Mean ([2]; 48 hr post treatment, 10 nM/kg)
1 | Tirzepatide [reference compound] | -8.0 mM | -11.8 mM | -5.4 mM | -17.7 mM | -10.0 mM | -14.9 mM | -2.5 mM | -8.1 mM | -1.9 mM | -3.2 mM | 1.5 mM | 0.2 mM | 8.72 | -10.3 mM | -9.4 mM | -13.6 mM | -14.9 mM | -10.1 mM | -4.0 mM | 
2 | CC[C@H](C)[C@H](NC(=O)[C@H](CC(C)C)NC(=O)[C@H](Cc1c[nH]c2ccccc12)NC(=O)[C@H](CCC(N)=O)NC(=O)[C@@H](NC(=O)[C@H](Cc1ccccc1)NC(=O)[C@H](C)NC(=O)[C@H](CCCCNC(=O)COCCOCCNC(=O)C(C)(C)NC(=O)CC[C@H](NC(=O)CCCCCCCCCCCCCCCCCCC(=O)O)C(=O)O)NC(=O)[C@H](CCC(N)=O)NC(=O)[C@H](C)NC(=O)[C@@H](NC(=O)[C@H](CCCCN)NC(=O)[C@H](CC(=O)O)NC(=O)[C@H](CC(C)C)NC(=O)C(C)(C)NC(=O)[C@@H](NC(=O)[C@H](CO)NC(=O)[C@H](Cc1ccc(O)cc1)NC(=O)[C@H](CC(=O)O)NC(=O)[C@H](CO)NC(=O)[C@@H](NC(=O)[C@H](Cc1ccccc1)NC(=O)[C@@H](NC(=O)CNC(=O)[C@H](CCC(=O)O)NC(=O)C(C)(C)NC(=O)[C@@H](N)Cc1ccc(O)cc1)[C@@H](C)O)[C@@H](C)O)[C@@H](C)CC)[C@@H](C)CC)C(C)C)C(=O)N[C@@H](C)C(=O)NCC(=O)NCC(=O)N1CCC[C@H]1C(=O)N[C@@H](CO)C(=O)N[C@@H](CO)C(=O)NCC(=O)N[C@@H](C)C(=O)N1CCC[C@H]1C(=O)N1CCC[C@H]1C(=O)N1CCC[C@H]1C(=O)N[C@@H](CO)C(N)=O [Compound 2] |  |  |  |  |  |  |  |  |  |  |  |  |  |  |  |  |  |  |  | -10.1 mM
